Earlier results on 1 compound are cited in US20190064129A1, “Systems And Methods To Determine Body Drug Concentration From An Oral Fluid” (Sterling Healthcare Opco, LLC, priority 2013, published 2019).

For the data set the following is noted: absorption constant, referenced in literature; cited from earlier work.

Take `COc1ccc2c3c1O[C@H]1C(=O)CC[C@@]4(O)[C@@H](C2)N(C)CC[C@]314` [Oxycodone]: the Ka is 3.5 h⁻¹.
